Among the data in patent US20090156501A1, “IDENTIFICATION OF LIGANDS BY SELECTIVE AMPLIFICATION OF CELLS TRANSFECTED WITH RECEPTORS” (ACADIA PHARMACEUTICALS, INC., priority 1999, published 2009) are EC50 values, retold here.

By UniProt entry, the sequences of proteins in these tests, tags left out. Residues count along the entry.
UniProt P25103, whole entry: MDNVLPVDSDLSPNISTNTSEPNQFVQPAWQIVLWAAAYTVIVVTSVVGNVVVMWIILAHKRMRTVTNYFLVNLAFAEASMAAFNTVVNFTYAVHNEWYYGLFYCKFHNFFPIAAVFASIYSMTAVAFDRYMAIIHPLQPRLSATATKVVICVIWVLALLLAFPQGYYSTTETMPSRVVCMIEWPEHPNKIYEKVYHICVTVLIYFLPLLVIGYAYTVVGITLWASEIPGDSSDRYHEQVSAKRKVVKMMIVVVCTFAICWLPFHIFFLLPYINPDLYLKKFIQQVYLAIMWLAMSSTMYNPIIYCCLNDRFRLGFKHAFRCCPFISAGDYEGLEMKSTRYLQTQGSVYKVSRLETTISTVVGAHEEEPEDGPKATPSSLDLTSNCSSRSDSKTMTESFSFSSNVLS
UniProt P21450, 21-427: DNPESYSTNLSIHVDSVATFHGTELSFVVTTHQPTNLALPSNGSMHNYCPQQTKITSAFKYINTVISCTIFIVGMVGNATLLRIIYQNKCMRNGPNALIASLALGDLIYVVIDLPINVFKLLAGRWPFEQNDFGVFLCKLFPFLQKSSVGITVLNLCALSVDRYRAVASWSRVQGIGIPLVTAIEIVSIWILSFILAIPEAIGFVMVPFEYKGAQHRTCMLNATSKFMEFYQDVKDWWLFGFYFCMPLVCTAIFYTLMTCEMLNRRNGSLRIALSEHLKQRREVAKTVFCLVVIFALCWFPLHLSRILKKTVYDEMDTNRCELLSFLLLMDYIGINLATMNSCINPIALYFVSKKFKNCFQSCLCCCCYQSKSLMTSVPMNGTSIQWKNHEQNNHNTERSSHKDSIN
UniProt P21452, whole entry: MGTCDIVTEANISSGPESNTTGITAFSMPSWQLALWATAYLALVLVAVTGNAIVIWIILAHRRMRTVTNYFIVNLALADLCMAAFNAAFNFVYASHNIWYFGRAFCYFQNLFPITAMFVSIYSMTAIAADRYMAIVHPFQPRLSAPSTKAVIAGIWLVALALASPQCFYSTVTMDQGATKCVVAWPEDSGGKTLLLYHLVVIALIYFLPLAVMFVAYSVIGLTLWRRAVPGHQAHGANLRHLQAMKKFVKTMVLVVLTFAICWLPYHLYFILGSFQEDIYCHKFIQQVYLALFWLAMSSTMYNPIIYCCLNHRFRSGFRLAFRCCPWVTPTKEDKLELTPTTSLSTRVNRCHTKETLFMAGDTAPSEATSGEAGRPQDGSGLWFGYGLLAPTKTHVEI

In one test the target is T1, Tachykinin NK1 receptor (Homo sapiens, UniProt P25103).
T1 construct: expressed in transfected cells; host or cells: NIH 3T3
Put plainly: Single Receptor Format amplification assay, tachykinin NK1. In kind it is cell-based. The following applies: 7-9 doses in duplicate; read-out: Ligand EC50 nM, NK1.

The next test concerns the target T2, Endothelin ETA receptor (Bos taurus, UniProt P21450).
T2 construct: expressed in transfected cells; host or cells: NIH 3T3
Put plainly: Single Receptor Format amplification assay, endothelin ETA. The following applies: 7-9 doses in duplicate; read-out: Ligand EC50 nM, ETA. In kind it is cell-based.

The target in another test is T3, Endothelin ETB receptor (Rattus norvegicus, UniProt P21451).
T3 construct: expressed in transfected cells; host or cells: NIH 3T3
T3 sequence (P21451 27-442): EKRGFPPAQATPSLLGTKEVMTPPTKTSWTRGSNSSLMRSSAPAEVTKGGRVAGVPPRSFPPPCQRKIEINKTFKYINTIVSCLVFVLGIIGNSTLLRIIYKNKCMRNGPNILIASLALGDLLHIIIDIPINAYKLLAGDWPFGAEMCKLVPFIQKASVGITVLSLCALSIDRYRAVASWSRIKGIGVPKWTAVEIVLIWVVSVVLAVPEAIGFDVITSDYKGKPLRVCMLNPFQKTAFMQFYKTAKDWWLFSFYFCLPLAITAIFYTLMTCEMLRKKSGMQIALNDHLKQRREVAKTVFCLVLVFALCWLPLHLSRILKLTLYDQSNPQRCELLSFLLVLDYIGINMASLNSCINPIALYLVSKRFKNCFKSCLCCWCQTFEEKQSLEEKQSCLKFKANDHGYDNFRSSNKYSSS
Put plainly: Single Receptor Format amplification assay, endothelin ETB. In kind it is cell-based. The following applies: 7-9 doses in duplicate; read-out: Ligand EC50 nM, ETB.

The target in the next test is Tachykinin NK2 receptor (Homo sapiens, UniProt P21452). The following applies: read-out: Ligand EC50 nM, NK2; 7-9 doses in duplicate.

Turning to neurokinin A, the EC50 at Tachykinin NK1 receptor amounted to 14 ± 5 nM.

For ET-1, the EC50 on Endothelin ETA receptor turned out to be 0.079 ± 0.048 nM; on Endothelin ETB receptor, 0.24 ± 0.2 nM. Take neurokinin B: the EC50 at Tachykinin NK2 receptor worked out at 1.3 ± 0.7 nM.
